Biological target: A2.1/K^b on EA2 target cells (UniProt P01901+P04439, D140Y/D185E/D98H/E176V/G131W/I119V/I121R/I166T/N151K/N90K/Q86G/Q94H/R138H/R169H)
Test: Binding inhibition assay: competition with influenza A-specific peptide, read out as lysis by influenza A-specific CTL Clone 12
Set-up: species or system chimeric human-mouse
Conditions: 10 μg test peptide, 0.1 μg influenza A-specific peptide; E:T 0.3:1; 6 hours; low lysis = binding

Protein sequences, listed by entry. Tags and fused reporters are not part of them. Lines headed by an entry give the natural chain unless they say otherwise; changes in a name come on top.
UniProt P01901: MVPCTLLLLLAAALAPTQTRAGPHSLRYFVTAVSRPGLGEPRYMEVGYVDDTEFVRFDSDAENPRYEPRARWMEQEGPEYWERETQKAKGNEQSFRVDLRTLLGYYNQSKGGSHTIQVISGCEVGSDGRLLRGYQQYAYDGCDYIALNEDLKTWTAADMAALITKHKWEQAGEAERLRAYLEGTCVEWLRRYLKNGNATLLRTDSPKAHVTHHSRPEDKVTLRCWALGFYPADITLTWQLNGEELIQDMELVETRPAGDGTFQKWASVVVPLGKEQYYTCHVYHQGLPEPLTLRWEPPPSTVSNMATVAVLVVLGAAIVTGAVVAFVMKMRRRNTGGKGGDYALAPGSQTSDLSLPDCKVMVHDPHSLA
UniProt P04439: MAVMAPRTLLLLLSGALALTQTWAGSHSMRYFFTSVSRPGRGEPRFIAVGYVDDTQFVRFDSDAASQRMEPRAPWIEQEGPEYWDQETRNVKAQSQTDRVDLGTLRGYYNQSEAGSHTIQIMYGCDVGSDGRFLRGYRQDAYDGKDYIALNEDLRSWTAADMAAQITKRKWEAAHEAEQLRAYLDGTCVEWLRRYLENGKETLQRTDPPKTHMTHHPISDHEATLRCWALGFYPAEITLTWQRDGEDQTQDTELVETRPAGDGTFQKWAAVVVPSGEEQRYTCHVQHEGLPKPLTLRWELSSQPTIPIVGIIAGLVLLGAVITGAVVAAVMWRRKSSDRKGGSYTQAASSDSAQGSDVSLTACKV

| Sequence | binding to A2.1/K^b (percent specific lysis of EA2/K^b targets, FIG. 1), in words |
| --- | --- |
| ASNENMETM | highest percent specific lysis |
| RGYVYQGL | highest percent specific lysis |
